The record followed here is ChEMBL document CHEMBL5506044, “Ligandability Assessment of IL-1β by Integrated Hit Identification Approaches” (J Med Chem, 2024).

Assay [1] has as its target T1, Interleukin-1 beta (Homo sapiens) (UniProt P01584).
T1 sequence (whole entry): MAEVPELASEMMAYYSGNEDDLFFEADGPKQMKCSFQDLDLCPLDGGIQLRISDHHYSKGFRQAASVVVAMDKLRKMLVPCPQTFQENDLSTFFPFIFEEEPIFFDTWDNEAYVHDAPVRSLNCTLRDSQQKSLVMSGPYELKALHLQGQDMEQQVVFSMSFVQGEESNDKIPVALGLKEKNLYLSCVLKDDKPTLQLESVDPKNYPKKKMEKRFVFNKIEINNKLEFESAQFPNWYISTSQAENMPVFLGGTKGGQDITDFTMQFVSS
The experiment in a line: Binding affinity to human IL-1 beta by 2D[13C, 1H]-HMQC NMR spectroscopy. The note with it: filed as antagonist.

In assay [2] the target is T1, Interleukin-1 beta (Homo sapiens). Nature of the assay: Binding affinity to human IL-1 beta expressed in Escherichia coli BL21 (DE3) assessed as on-rate constant by 2D NMR titration based analysis. The settings on record: filed as antagonist.
For assay [3] the target is unchanged. The experiment in a line: Binding affinity to human IL-1 beta upto 1 mM by 2D[13C, 1H]-HMQC NMR spectroscopy.
For assay [4] the target is unchanged. The experiment in a line: Binding affinity to human IL-1 beta assessed as protein-compound covalent conjugate formation at 50 pmol preincubated for 1 hr followed by incubation with NaCNBH3 and measured after 1 hr by mass spectrometry. The note with it: filed as antagonist, time 2.0 hrs.

Calls of active or inactive are those of the source. No cut-off for these calls is given here.

With `OC(c1ccc(OC(F)F)cc1)(c1cccc(Br)c1)c1cc[nH]n1` (racemic), in assay [1], the result was Active.
Turning to `O=C1Nc2cc(C(F)(F)F)ccc2[C@]1(O)c1cc(Cl)ccc1O`, the K in assay [2] is 2.7 10^5/M/s.
Consider `CC(C)c1cccc(-c2cc(C(=O)O)cn3cc(C(=O)N4CCN(S(=O)(=O)c5ccccc5)CCC4C(=O)NCCN4CCOCC4)nc23)c1` (centres undefined), for which, in assay [3], the result was inactive.
Consider `CC(C)c1cc(-c2cc(C(=O)O)cn3cc(C(=O)N4CCN(S(=O)(=O)c5ccccc5)CCC4C(=O)NCCN4CCOCC4)nc23)ccc1C=O` (racemic), for which, in assay [4], the outcome was Active.
